{"sequences": {"note": "By UniProt entry, the sequences of proteins in these tests, tags left out. Residues count along the entry.", "UniProt Q99835, 28-787 limits assumed": "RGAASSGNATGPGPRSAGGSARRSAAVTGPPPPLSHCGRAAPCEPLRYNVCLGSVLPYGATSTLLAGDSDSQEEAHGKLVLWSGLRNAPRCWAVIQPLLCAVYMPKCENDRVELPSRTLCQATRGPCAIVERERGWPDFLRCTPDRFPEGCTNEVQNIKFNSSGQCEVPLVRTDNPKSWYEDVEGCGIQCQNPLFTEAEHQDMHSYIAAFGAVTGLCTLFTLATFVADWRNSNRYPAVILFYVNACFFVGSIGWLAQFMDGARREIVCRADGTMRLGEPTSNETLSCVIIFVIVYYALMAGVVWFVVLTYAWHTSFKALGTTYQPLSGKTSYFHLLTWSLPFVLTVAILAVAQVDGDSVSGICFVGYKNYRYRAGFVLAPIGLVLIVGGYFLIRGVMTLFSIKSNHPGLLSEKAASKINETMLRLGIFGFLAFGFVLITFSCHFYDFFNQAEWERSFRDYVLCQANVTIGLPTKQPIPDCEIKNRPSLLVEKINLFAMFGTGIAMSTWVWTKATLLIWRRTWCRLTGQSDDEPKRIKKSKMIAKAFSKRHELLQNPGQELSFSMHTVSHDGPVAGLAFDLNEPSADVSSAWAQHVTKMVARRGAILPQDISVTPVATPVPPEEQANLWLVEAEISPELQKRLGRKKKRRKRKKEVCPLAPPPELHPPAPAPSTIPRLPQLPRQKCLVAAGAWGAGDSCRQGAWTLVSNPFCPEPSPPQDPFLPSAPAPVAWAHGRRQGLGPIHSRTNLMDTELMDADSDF"}, "source": "patent US20090306149A1", "about": "“USE OF BIARYLCARBOXAMIES IN THE TREATMENT OF HEDGEHOG PATHWAY-RELATED DISORDERS” (priority 2006, published 2009)", "key": {"Smoothened": {"target": "Smoothened (Homo sapiens, UniProt Q99835)", "test": "Smo binding assay, displacement of a small molecule agonist of Smoothened, filter binding format", "settings": "read-out: Binding assay IC50"}, "[1]": {"system": "gli-luciferase activity (Hh pathway) in TMHh12 cells", "test": "\"IC50 shift\" gli-luciferase reporter assay in TMHh12 cells with a small molecule Smo agonist", "description": "TM3 cells (mouse) transfected with a new proprietary reporter construct (pTA-8xGli-Luc). The pTA-8xGli-Luc reporter produces approx. 4 fold more luciferase activity than classical 8xGli-LUC. A highly responsive stable clone has been selected (TMHh12) with >10-fold signal/noise ratio and <10% CV in 384 well format.\n“IC50 shift” assays in TMHh12 cells. IC50 for antagonism of gli-luciferase activity was tested in the presence of increasing concentrations of a small molecule agonist which binds to Smo with 1 nM affinity and activates the Hh pathway.\nTable 1 lists the IC50 of antagonists determined in the presence of different (1 nM and 25 nM) concentrations of a small agonist of Smoothened."}}, "note": "Read-outs that look alike come from different tables or passages of the source."}
{"molecule": "Cc1cccc(C(=O)Nc2ccc3c(c2)CC(NCc2ccc4ccccc4c2)C3)c1-c1ccc(C(F)(F)F)cc1", "note": "(stereo not drawn)", "values": [{"measurement": "IC50", "setting": "Smoothened", "value": 24, "unit": "nM"}, {"measurement": "IC50", "setting": "[1]; read-out: Gli_luc (1 nM Smo agonist) IC50, 1 nM small molecule Smo agonist", "value": 50, "unit": "nM"}, {"measurement": "IC50", "setting": "[1]; read-out: Gli_luc (25 nM Smo agonist) IC50, 25 nM small molecule Smo agonist", "value": 504, "unit": "nM"}]}
